Here are results for 21 compounds from article PMC9884089 (Journal of Medicinal Chemistry, 2023).

Protein sequences, listed by entry. Tags and fused reporters are not part of them. Lines headed by an entry give the natural chain unless they say otherwise; changes in a name come on top.
UniProt Q9UGN5: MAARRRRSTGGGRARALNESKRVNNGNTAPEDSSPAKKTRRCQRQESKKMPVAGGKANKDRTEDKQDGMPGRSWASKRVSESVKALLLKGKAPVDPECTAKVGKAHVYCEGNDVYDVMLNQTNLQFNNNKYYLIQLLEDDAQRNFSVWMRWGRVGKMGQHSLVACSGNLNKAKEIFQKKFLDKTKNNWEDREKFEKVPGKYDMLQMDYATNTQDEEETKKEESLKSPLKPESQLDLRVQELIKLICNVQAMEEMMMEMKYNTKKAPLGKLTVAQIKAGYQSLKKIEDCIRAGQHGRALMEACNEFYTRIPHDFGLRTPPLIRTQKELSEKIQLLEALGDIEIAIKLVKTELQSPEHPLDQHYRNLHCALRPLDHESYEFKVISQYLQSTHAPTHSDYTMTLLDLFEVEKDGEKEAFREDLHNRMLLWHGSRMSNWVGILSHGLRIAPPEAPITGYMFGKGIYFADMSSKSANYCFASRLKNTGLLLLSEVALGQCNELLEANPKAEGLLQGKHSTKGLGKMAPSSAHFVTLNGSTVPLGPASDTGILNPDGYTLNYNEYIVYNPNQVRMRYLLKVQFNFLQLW

Read-outs that look alike come from different tables or passages of the source.

One may read the IC50 as the concentration needed to halve the response being measured.

Common to all, as to format: biochemical
One test addresses T1, PARP15 (Homo sapiens, UniProt Q460N3).
T1 sequence (Q460N3 1-678): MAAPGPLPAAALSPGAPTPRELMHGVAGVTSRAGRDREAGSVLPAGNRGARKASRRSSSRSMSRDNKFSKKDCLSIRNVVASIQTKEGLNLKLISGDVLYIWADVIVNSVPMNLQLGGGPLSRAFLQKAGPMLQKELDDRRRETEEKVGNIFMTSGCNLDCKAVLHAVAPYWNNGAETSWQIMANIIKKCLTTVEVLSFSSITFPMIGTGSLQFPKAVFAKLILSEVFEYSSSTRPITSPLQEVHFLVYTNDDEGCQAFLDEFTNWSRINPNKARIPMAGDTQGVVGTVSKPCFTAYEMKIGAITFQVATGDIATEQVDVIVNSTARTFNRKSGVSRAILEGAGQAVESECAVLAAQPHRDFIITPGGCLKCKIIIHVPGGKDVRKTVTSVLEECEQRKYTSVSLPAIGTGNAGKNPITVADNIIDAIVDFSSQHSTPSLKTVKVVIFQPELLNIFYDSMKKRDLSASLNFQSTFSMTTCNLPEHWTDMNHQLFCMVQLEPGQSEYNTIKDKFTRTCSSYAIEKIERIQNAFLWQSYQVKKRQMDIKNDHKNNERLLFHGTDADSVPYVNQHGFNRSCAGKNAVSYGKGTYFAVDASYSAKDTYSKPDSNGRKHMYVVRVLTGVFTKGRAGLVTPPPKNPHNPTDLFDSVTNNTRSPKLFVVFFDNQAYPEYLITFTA
The experiment in a line: biochemical. Details: made in house.

A further test has as its target T2, PARP10 (Homo sapiens, UniProt Q53GL7).
T2 sequence (Q53GL7 1-1025): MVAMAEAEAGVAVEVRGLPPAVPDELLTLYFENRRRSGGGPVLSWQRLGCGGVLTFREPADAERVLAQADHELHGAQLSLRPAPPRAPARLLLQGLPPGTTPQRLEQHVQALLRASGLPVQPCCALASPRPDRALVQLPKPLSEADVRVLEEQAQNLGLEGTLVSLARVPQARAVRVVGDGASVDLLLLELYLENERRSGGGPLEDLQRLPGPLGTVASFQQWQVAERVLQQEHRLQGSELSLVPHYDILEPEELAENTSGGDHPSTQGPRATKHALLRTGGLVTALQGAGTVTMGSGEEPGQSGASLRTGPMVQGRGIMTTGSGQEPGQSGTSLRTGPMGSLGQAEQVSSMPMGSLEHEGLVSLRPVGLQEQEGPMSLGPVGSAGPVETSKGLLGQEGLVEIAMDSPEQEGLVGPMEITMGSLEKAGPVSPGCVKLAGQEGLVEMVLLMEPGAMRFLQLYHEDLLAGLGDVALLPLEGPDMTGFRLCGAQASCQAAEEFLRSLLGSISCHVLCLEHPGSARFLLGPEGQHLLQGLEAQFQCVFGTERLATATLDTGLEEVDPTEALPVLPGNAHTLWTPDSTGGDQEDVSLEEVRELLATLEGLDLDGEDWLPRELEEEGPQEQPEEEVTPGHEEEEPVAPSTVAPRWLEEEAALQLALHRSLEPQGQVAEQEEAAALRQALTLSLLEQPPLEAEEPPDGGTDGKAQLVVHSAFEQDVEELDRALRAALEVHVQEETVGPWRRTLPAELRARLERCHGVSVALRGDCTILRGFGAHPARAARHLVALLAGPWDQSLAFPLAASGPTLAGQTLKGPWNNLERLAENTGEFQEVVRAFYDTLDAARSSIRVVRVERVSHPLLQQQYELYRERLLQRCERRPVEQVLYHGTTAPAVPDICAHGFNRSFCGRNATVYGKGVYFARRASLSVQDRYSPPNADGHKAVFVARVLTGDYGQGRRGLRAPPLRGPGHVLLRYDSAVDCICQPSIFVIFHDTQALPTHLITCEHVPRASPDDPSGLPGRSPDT
The experiment in a line: biochemical. Details: made in house.

The target in a further test is T3, PARP2 (Homo sapiens, UniProt Q9UGN5).
T3 construct: made in house
As to conditions: > = less than 50% inhibition at highest concentration; ≫ = no inhibition.

Setting [1] is: standard assay (Tables 1-3), * value limited by the protein concentration used, > less than 50% inhibition, ≫ no inhibition at the concentration, read-out: PARP15 IC50.
[2] abbreviates: standard assay (Tables 1-3), * value limited by the protein concentration used, > less than 50% inhibition, ≫ no inhibition at the concentration, read-out: PARP10 IC50.

For `Cc1ccc(F)c2c1sc1nncn12` [Compound 9, 5-Fluoro-8-methyl[1,2,4]triazolo[3,4-b][1,3]benzothiazole], the IC50 at PARP15 (setting [1]) was found to be 6.9 µM; at PARP10 (setting [2]), 5 µM.

In the case of `Cc1cccc2c1sc1nncn12` [Compound 4, 8-Methyl[1,2,4]triazolo[3,4-b][1,3]benzothiazole], the IC50 on PARP15 (setting [1]) was 7.1 µM; on PARP10 (setting [2]) it was 3.4 µM.

For `COc1ccc(OC)c2c1sc1nnc(NC(=O)C(C)(C)C)n12` [Compound 30, N-(5,8-Dimethoxy[1,2,4]triazolo[3,4-b][1,3]benzothiazol-3-yl)-2,2-dimethylpropanamide], the IC50 against PARP15 and on PARP10 was > 10 µM in each case.

For `COc1ccc(OC)c2c1sc1nncn12` [Compound 14, 5,8-Dimethoxy[1,2,4]triazolo[3,4-b][1,3]benzothiazole], the concentration for half-maximal inhibition (IC50) at PARP15 (setting [1]) stood at 1.6 µM; at PARP10 (setting [2]), 0.49 µM. In addition, the “PARP10 pIC50 ± SEM” value on PARP10 (standard assay (Tables 1-3)) was determined as 6.31 ± 0.22.

As to `Oc1cccc2c1sc1nncn12` [Compound 17, [1,2,4]Triazolo[3,4-b][1,3]benzothiazol-8-ol], the “PARP15 pIC50 ± SEM” value at PARP15 (standard assay (Tables 1-3)) is listed as 5.33 ± 0.11. The 50% inhibitory concentration (IC50) at PARP15 (setting [1]) came out at 4.7 µM.

On to `COc1cccc2sc3nncn3c12` [Compound 13, 5-Methoxy[1,2,4]triazolo[3,4-b][1,3]benzothiazole], for which the “PARP10 pIC50 ± SEM” value at PARP10 (standard assay (Tables 1-3)) was determined as 5.30 ± 0.15. Moreover, the IC50 on PARP10 (setting [2]) is 5.1 µM.

Regarding `COc1ccc(OC)c2c1sc1nnc(NC(C)=O)n12` [Compound 31, N-(5,8-Dimethoxy[1,2,4]triazolo[3,4-b][1,3]benzothiazol-3-yl)acetamide], the IC50 at PARP15 and against PARP10 was > 10 µM in each case.

With `Oc1ccc(O)c2c1sc1nncn12` [Compound 18, [1,2,4]Triazolo[3,4-b][1,3]benzothiazol-5,8-diol], the “PARP15 pIC50 ± SEM” value on PARP15 (standard assay (Tables 1-3)) is on record as 6.54 ± 0.05. For the same compound, the IC50 at PARP15 (setting [1]) is 0.29 µM; on PARP10 (setting [2]), 0.32 µM. Besides, the “PARP10 pIC50 ± SEM” value at PARP10 (standard assay (Tables 1-3)) was found to be 6.50 ± 0.04.

Turning to `COc1cccc2c1sc1nncn12` [Compound 12, 8-Methoxy[1,2,4]triazolo[3,4-b][1,3]benzothiazole], the “PARP15 pIC50 ± SEM” value at PARP15 (standard assay (Tables 1-3)) is recorded as 5.93 ± 0.16. Moreover, the IC50 at PARP15 (setting [1]) came out at 1.2 µM; at PARP10 (setting [2]), 1.9 µM. The “PARP10 pIC50 ± SEM” value at PARP10 (standard assay (Tables 1-3)) stood at 5.71 ± 0.04.

Regarding `COc1cc(OC)c2sc3nncn3c2c1` [Compound 15, 6,8-Dimethoxy[1,2,4]triazolo[3,4-b][1,3]benzothiazole], the IC50 came out at 1.6 µM on PARP15 (setting [1]) and 1.1 µM at PARP10 (setting [2]).

Consider `CSc1nnc2sc3cc(C)ccc3n12` [Compound 22, 7-Methyl-3-(methylthio)[1,2,4]triazolo[3,4-b][1,3]benzothiazole], for which the “PARP10 pIC50 ± SEM” value at PARP10 (standard assay (Tables 1-3)) was determined as 5.45 ± 0.54. Further, the IC50 at PARP10 (setting [2]) is 3.7 µM.

Consider `CC(C)c1ccc2c(c1)sc1nncn12` [Compound 6, 7-Isopropyl[1,2,4]triazolo[3,4-b][1,3]benzothiazole], for which the “PARP15 pIC50 ± SEM” value at PARP15 (standard assay (Tables 1-3)) is given as 5.41 ± 0.13. For the same compound, the results for the IC50 at PARP15 (setting [1]) and at PARP10 (setting [2]) were 3.9 µM and 5.5 µM, respectively. Also, the “PARP10 pIC50 ± SEM” value at PARP10 (standard assay (Tables 1-3)) is listed as 5.26 ± 0.08.

For `Cc1cc(C)c2c(c1)sc1nncn12` [Compound 8], the “PARP15 pIC50 ± SEM” value at PARP15 (standard assay (Tables 1-3)) worked out at 6.11 ± 0.10. Moreover, the results for the IC50 on PARP15 (setting [1]) and at PARP10 (setting [2]) were 0.78 µM and 1.7 µM, respectively.

`Cc1ccc2c(c1)sc1nncn12` [Compound 1]: the IC50 on PARP15 (setting [1]) and on PARP10 (setting [2]) was 3.2 µM in each case.

On to `COc1ccc2c(c1)sc1nncn12` [Compound 11], for which the half-maximal inhibitory concentration (IC50) on PARP15 (setting [1]) came out at 4 µM; at PARP10 (setting [2]), 6.5 µM.

As to `Clc1ccc2c(c1)sc1nncn12` [Compound 7], the half-maximal inhibitory concentration (IC50) on PARP15 (setting [1]) was found to be 7 µM.

As for `Cc1ccc2sc3nncn3c2c1` [Compound 3, 6-Methyl[1,2,4]triazolo[3,4-b][1,3]benzothiazole], the figures for the IC50 on PARP15 (setting [1]) and at PARP10 (setting [2]) were 6.6 µM and 10 µM, respectively.

Compound `COc1ccc(OC)c2c1sc1nnc(SC)n12` [Compound 28] registered an IC50 on PARP2 of 8.4 µM.

In the case of `Cc1ccc2c(c1)sc1nnc(O)n12` [Compound 19], on PARP10 (standard assay (Tables 1-3)), the “PARP10 pIC50 ± SEM” value is listed as 5.27 ± 0.13. At PARP10 (setting [2]), the IC50 is 5.4 µM.

In the case of `CCc1ccc2c(c1)sc1nncn12` [Compound 5, 7-Ethyl[1,2,4]triazolo[3,4-b][1,3]benzothiazole], at PARP15 (standard assay (Tables 1-3)), the “PARP15 pIC50 ± SEM” value was 5.70 ± 0.04. Besides, the IC50 worked out at 2 µM on PARP15 (setting [1]) and 4.9 µM at PARP10 (setting [2]). Moreover, the “PARP10 pIC50 ± SEM” value at PARP10 (standard assay (Tables 1-3)) worked out at 5.31 ± 0.10.

Take `COc1ccc2sc3nncn3c2c1` [Compound 10, 6-Methoxy[1,2,4]triazolo[3,4-b][1,3]benzothiazole]: the values for the IC50 on PARP15 (setting [1]) and on PARP10 (setting [2]) were 7.1 µM and 1.8 µM, respectively.
